Reference: patent publication US6660768B2, “Parasiticidal compositions and methods of use” (Schering-Plough Animal Health Corporation, priority 2001, dated 2003)

Assays:
[1] = Example 3D: solubility of permethrin in propylene glycol monomethyl ether at 20° C. after crystallization at 0° C.; format: physicochemical
Method: The purpose of this study was to determine the solubility of permethrin at 20° C. A 70% solution permethrin in propylene glycol monomethyl ether was prepared. The technical permethrin and original 70% solution were sampled for determination of permethrin concentration and the trans/cis ratio. The solution was placed in the bath, and continually stirred. The bath temperature was lowered to 0° C. After crystallization occurred in the solution, the bath temperature setting was raised to 20° C. and the stirred slurry was allowed to equilibrate over a three-day period. After this time, samples of the supernatant were pulled on consecutive days. The crystals were separated from the liquid layer by filtration, and the crystals were washed with petroleum ether. All resulting samples, of both supernatant and crystals, were analyzed for both total permethrin content and the trans/cis isomer ratio. The crystals were washed to remove any residual solution that might contaminant their analysis.
However, as with all solutions of permethrin that have been observed, the cis isomer will crystallize and precipitate from solution if the temperature is low enough.

[2] = Example 3A: relative solubility of permethrin in neat solvents, seeded solutions in cold bath, supernatant assayed
Method: These solutions were poured into 100 mL tubes with screw top caps. These tubes were placed in the cold water bath and allowed to come to equilibrium at the temperature of the bath. […] The seeded preparations were then thoroughly shaken, replaced in the bath and allowed to remain in the bath for a 24 hour period. The preparations were then examined for crystallization, then again thoroughly agitated and replaced in the bath for an additional time period. Samples of the supernatant were removed after additional crystallization had occurred.
After 24 hours the tubes were examined for the relative amount of crystallization that may have occurred in each of the solutions. Where crystallization had occurred, samples of the supernatant were pulled from the vials and the temperature of the bath was lowered to 15° C.
Samples were again taken for assay from the solutions of hexylene glycol and methyl Carbitol® (diethylene glycol monomethyl ether).

[3] = Dipropylene Glycol Monomethyl Ether, 15° C.
[4] = Propylene Glycol Monomethyl Ether, 15° C.

CC1(C)C(C=C(Cl)Cl)C1C(=O)OCc1cccc(Oc2ccccc2)c1 (stereo not shown) [permethrin]
Isomer Ratio Trans/Cis ([1]; Assay of Crystals (filtered, washed)): 0 | Isomer Ratio Trans/Cis ([1]; Initial Assay of 70% Solution in propylene glycol monomethyl ether): 1.34 | Isomer Ratio Trans/Cis ([1]; supernatant, propylene glycol monomethyl ether, 20° C., 2nd Day after Equilibrium Reached): 1.41 | Isomer Ratio Trans/Cis ([1]; supernatant, propylene glycol monomethyl ether, 20° C., Assay after Equilibrium Reached): 1.41 | Comments (crystallization) ([2]; Diethylene Glycol Monomethyl Ether, 15° C.): 15 °C it became solid. The | Trans/Cis Ratio ([2]; Diethylene Glycol Monomethyl Ether, 17.5° C.): 1.59 | Trans/Cis Ratio ([2]; Diethylene Glycol Monomethyl Ether, 20° C.): 1.40 | Trans/Cis Ratio ([2]; Diethylene Glycol Monomethyl Ether, 25° C.): 1.39 | Comments (crystallization) ([2]; Diethylene Glycol Monomethyl Ether, 25° C., 70% permethrin): No crystallization occurred at | Comments (crystallization) ([2]; Diethylene Glycol Monomethyl Ether, 25° C., 75% permethrin, after second addition of permethrin crystals): at 25 °C Crystals remained in the | Trans/Cis Ratio ([2]; Diethylene Glycol Monomethyl Ether, Initial): 1.42 | Comments (crystallization) ([2]; Diethylene Glycol Monomethyl Ether, crystallization at 20° C.): The solution showed quite a bit of | Comments (crystallization) ([2]; Diethylene Glycol Monomethyl Ether, held at 17.5° C. for 24 hours): product was mostly solid. No | Comments (crystallization) [2, 3]: The product became solid at | Trans/Cis Ratio [2, 3]: 1.46 | Trans/Cis Ratio ([2]; Dipropylene Glycol Monomethyl Ether, 20° C.): 1.38 | Trans/Cis Ratio ([2]; Dipropylene Glycol Monomethyl Ether, 25° C.): 1.38 | Comments (crystallization) ([2]; Dipropylene Glycol Monomethyl Ether, 25° C., 70% permethrin): No crystallization occurred at | Comments (crystallization) ([2]; Dipropylene Glycol Monomethyl Ether, 25° C., 75% permethrin, after second addition of permethrin crystals): at 25 °C Crystals remained in the | Trans/Cis Ratio ([2]; Dipropylene Glycol Monomethyl Ether, Initial): 1.39 | Comments (crystallization) ([2]; Hexylene Glycol, 15° C.): product was solid at 15 °C | Comments (crystallization) ([2]; Hexylene Glycol, 17.5° C.): mostly solid at 17.5 °C The | Trans/Cis Ratio ([2]; Hexylene Glycol, 17.5° C.): 1.87 | Comments (crystallization) ([2]; Hexylene Glycol, 20°, solution completely): solidified at 20°. Samples were | Trans/Cis Ratio ([2]; Hexylene Glycol, 25° C.): 1.39 | Comments (crystallization) ([2]; Hexylene Glycol, 25° C., 70% permethrin): No crystallization occurred at | Comments (crystallization) ([2]; Hexylene Glycol, 25°, 75% permethrin, after second addition of permethrin crystals): at 25 °C Crystals remained in the | Trans/Cis Ratio ([2]; Hexylene Glycol, Initial): 1.39 | Comments (crystallization) [2, 4]: product was mostly solid at 15° C., | Trans/Cis Ratio [2, 4]: 1.39 | Trans/Cis Ratio ([2]; Propylene Glycol Monomethyl Ether, 20° C.): 1.41 | Trans/Cis Ratio ([2]; Propylene Glycol Monomethyl Ether, 25° C.): 1.38 | Comments (crystallization) ([2]; Propylene Glycol Monomethyl Ether, 25° C., 70% permethrin): No crystallization occurred at | Trans/Cis Ratio ([2]; Propylene Glycol Monomethyl Ether, Initial): 1.40 | Comments (crystallization): crystals ([2]; Propylene Glycol Monomethyl Ether, the lower temperature (20° C.), 75% permethrin, seeded): remained in the solution. The | Comments (crystallization) ([2]; d-limonene, 15° C., 75% permethrin, seeded): crystals remained in the solution. | Trans/Cis Ratio ([2]; d-limonene, 20° C.): 1.38 | Trans/Cis Ratio ([2]; d-limonene, 25° C.): 1.39 | Comments (crystallization) ([2]; d-limonene, 25° C., 70% permethrin): No crystallization occurred at | Trans/Cis Ratio ([2]; d-limonene, Initial): 1.38
